From patent US12650432B2 (dated 2026)
Entries after “also recorded” stand apart in the source; their conditions may differ.

Test system: DPP4 mRNA
Conditions: in vivo, po

## N[C@@H](CC(=O)N1CCn2c(nnc2C(F)(F)F)C1)Cc1cc(F)c(F)cc1F [sitagliptin]
  Endometrial DPP4 mRNA level normalized to L19: no evidence that oral sitagliptin (100 mg daily) for 3 cycles inhibits endometrial DPP4 expression or activity; also recorded: not significantly different
